# Yeast mating assay B: variants of the scFv Ab-14

Binding partner: SARS-CoV-2 spike HR2 peptide, sequence PDVDLGDISGINAS.

Parent: Ab-14, a human scFv built as VH, a (GGGGS)3 linker, VL. Only the CDRs of the heavy chain vary.
VH: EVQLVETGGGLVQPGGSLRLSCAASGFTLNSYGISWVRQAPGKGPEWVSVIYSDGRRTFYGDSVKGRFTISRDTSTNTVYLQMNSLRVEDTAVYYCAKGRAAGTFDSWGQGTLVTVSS
VL: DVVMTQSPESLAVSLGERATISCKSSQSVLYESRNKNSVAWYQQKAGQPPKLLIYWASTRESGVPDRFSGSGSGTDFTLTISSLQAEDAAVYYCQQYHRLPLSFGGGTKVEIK

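Phage display of a naive human antibody library on the peptide gave the parent. Designed CDR sequences, proposed from the first random library and measured here. Several design methods are mixed in this list. AlphaSeq pools MATa yeast showing the antibodies with MATalpha yeast showing the peptide. Mating (16 h, 30 °C) was followed by selection of diploids and sequencing of their barcodes. The ratio of observed to expected reads was calibrated, replicate by replicate, on BCL2-family standards whose Kd was known from biolayer interferometry. Each pool was mated in six replicate cultures.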

Variants are written as CDR1, CDR2 and CDR3 of the heavy chain (limits as in the source). Parent: GFTLNSYGIS, VIYSDGRRTFYGDSVK, GRAAGTFDS.
This list holds designs with at most six substitutions.
Values are apparent Kd, the geometric mean of the replicates that gave a signal; lower means stronger binding.
"nd" means that the variant was in the library but no mating with the target was seen in any replicate; the authors take this as a sign of poor binding, and no number exists.
The range of this assay differs from that of the first round, and the authors advise against merging the two.
Background: pairings of all heavy chain designs with three empty control strains gave a value in 1% of cases (median 120 nM, 5th percentile 7.0 nM). Values in that range, when seen in few replicates, are hard to tell from nonspecific mating.
The authors averaged sequences with at least three values out of six and counted those with two or fewer as poor binders.
The parent sequence was in this pool as ten entries: three were never detected, three once, and four in most replicates, with averages from 2.2 nM to 240 nM.

* GFTLNMYGIS | VIYSDGRRLFYGDSVK | GRLGGTFDS -> nd (0 of 6 replicates)
* GFDLNSYGIS | VIYSDGRRTAYGDSVK | GRAAGTFDD -> 190 pM (1 of 6 replicates)
* GFDLNSYGIS | VIYSDGRRTFYGDSVK | GRAAGWFTS -> nd (0 of 6 replicates)
* GFTLNDYGIS | VIYSDGRRTHYADSVK | GRAAGTFDS -> 6.2 nM (6 of 6 replicates)
* GFTLNSYGIS | VIYSDGRRTAYNDSVK | SRAAFTFDS -> nd (0 of 6 replicates)
* GFTLNSYGIS | VIYSDGERTFYGDSVK | GRVAWTFDS -> nd (0 of 6 replicates)
* GFSLNSYGIS | VIYSDGRRTFYADSVK | GWAAGTFDS -> 770 pM (6 of 6 replicates)
* GFDLNSYGIS | VIYSDGRRTFYIDSVK | GQAAGTFDL -> 2.1 nM (6 of 6 replicates)
* GFQLNEYGIS | VIYSDGRRTFYADQVK | GQAAGTFDS -> 1.1 nM (6 of 6 replicates)
* GFTLNEYGIS | VIYSDGRRTFYIDSVK | GRAAGTFFS -> nd (0 of 6 replicates)
* GFTLNDYGIS | VIYSDGRRTWYGDSVK | GREAGTFDS -> 260 pM (6 of 6 replicates)
* GFHLNSYGIS | VIYSDGRRTFYADSVK | GQTAGTFDD -> 2.5 nM (6 of 6 replicates)
* GFDLNSYGIS | VIYADGRRTFYGDSVK | GNAAGTFDS -> 1.3 nM (6 of 6 replicates)
* GFTLNSYGIS | VIYSDGRRTFYGDQVK | GQAALTFDA -> nd (0 of 6 replicates)
* GFNLNSYGIS | VIYSDGRRTFYGDSVK | GRQAGTFDT -> 6.5 nM (6 of 6 replicates)
* GFTLNSYGIS | VIYSDGRRTFYGDSVK | GEVAGTFDS -> 4.0 nM (6 of 6 replicates)
* GFTLNEYGIS | VDYSDGRRTFYGDSVA | RRCAGTFDS -> nd (0 of 6 replicates)
* GFDLNSYGIS | VIYSDGRRTFYCDSVK | GRAAVTFDS -> 63 nM (6 of 6 replicates)
* GFTLNDYGIS | VIYSDGRRTAYGDSVK | GRAAGTFDS -> 850 pM (6 of 6 replicates)
* GFTLNEYGIS | VIYSDGQRTFYGDSVK | GRAAGTFIS -> nd (0 of 6 replicates)
* GFTLNEYGIS | VIYSDGWRTFYGDSVK | GRAAGTFDS -> 32 nM (6 of 6 replicates)
* GFTIEDYGID | VIYSDGRRTFYGDSVK | GRAAGTFDD -> nd (0 of 6 replicates)
* GFSLNSYGIS | VIYSDGRRTFYADSVK | GRSAGTFDS -> 880 pM (6 of 6 replicates)
* GFTLNEYGIS | VIYSDGRRTFYGDSVK | GAAAGTFDS -> nd (0 of 6 replicates)
* GFHLNSYGIS | VIYSDGMRTFYVDSVK | GRTAGTFDS -> nd (0 of 6 replicates)
* GFSLNEYGIS | VIYSDGRRAFYGDSVK | GRAAAHFDS -> nd (0 of 6 replicates)
* GFDLESYGIS | VIYSDGRRTFYGDSVK | GRAAGWFNS -> 3.6 nM (6 of 6 replicates)
* GFTLNSYGIS | VIYSDGRRTYMADSVK | GRAAGTFDS -> 6.6 nM (4 of 6 replicates)
* GFQLNSYGIS | VIYSDGRRTFYSDSVK | GKAGGTFDS -> 12 nM (1 of 6 replicates)
* GFTLNSYSIS | VIYSDGRRTFYDDSVK | GQLAGTFDF -> nd (0 of 6 replicates)
* GFTLNDYGIS | VIYSHGRRTFYGDSVK | DRAALTFIS -> nd (0 of 6 replicates)
* GFTLDSYGIS | VISSDGRRTFYGDSVK | GRAAGTALS -> nd (0 of 6 replicates)
* LFTLNEYGIS | VIYSDGRRTFYGDSVK | GRAAVTFDQ -> nd (0 of 6 replicates)
* GFSLNSYGIS | VIYSDGRRTFYIDSVK | GMAAGTFDS -> 300 nM (2 of 6 replicates)
* GFDLNMYGIS | VIYSDGRRTFYGDSVK | GRTAGTFDS -> 4.8 nM (6 of 6 replicates)
* GFTLNEYGIS | VIYSDGRRTFYSDSVK | GRAAGTFTS -> 81 nM (5 of 6 replicates)
* KFELNSYGIS | VIYSDGRRTFYADSVK | GRTAGTFDS -> 21 nM (6 of 6 replicates)
* GFDLNSYGIS | VIYSDGRRNFYGDSVK | GRAAGWFNS -> nd (0 of 6 replicates)
* GFTLNSYGIQ | VIYSDGRRTFYSDSNK | GRAGGTFDS -> nd (0 of 6 replicates)
* GFTLNEYGIS | VIYSDGRRTFYTDSVK | GNAAGTFDS -> 1.4 nM (6 of 6 replicates)
* GFNLNSYGIS | VIYSDGRRTFYADSVK | GRVAGTFDS -> 2.3 nM (6 of 6 replicates)
* GFTLNSYGIS | VIYSDGKRTFYSDSVK | GEAAGTFDT -> 2.8 nM (4 of 6 replicates)
* GFTLESYGIS | VIYADGRRTFYGDIVK | GRAAGTFKS -> nd (0 of 6 replicates)
* GFTLNSYGVS | VIYSDGRRTFYGDSVK | GRASGTFDY -> 70 nM (2 of 6 replicates)
* GFTLNDYGIS | VIYSDGRRTFYSDSVK | GRAAGTFIS -> nd (0 of 6 replicates)
* GFTLNSYGIS | VIYSDGRRTFYSDSVK | GMSAGTFDS -> 6.9 nM (6 of 6 replicates)
* GFTLDSYGIS | VIYSDGRRTFYGDSVK | GRAAGTFFQ -> nd (0 of 6 replicates)
* GFTLNDYGIS | VIYSDGRRTFYKDSVK | GRAAGTFWS -> nd (0 of 6 replicates)
* GFTLNDYGIS | VIYSDGRRTQYGDSVK | GRAAGTPDM -> 240 nM (4 of 6 replicates)
* GFELNSYGIS | VIYSDGRRTFYSDSVK | GMAAGTFDS -> 830 pM (1 of 6 replicates)
* GFTLNEYGIS | VIYSDGRRTFYKDSVK | GRTAGTFDS -> 870 pM (6 of 6 replicates)

Excerpt, the final 5 entries:

- GFTLDSYGIS | VIYSDGRRTFYGDSVK | GRAAGTFFQ -> nd (0 of 6 replicates)
- GFTLNDYGIS | VIYSDGRRTFYKDSVK | GRAAGTFWS -> nd (0 of 6 replicates)
- GFTLNDYGIS | VIYSDGRRTQYGDSVK | GRAAGTPDM -> 240 nM (4 of 6 replicates)
- GFELNSYGIS | VIYSDGRRTFYSDSVK | GMAAGTFDS -> 830 pM (1 of 6 replicates)
- GFTLNEYGIS | VIYSDGRRTFYKDSVK | GRTAGTFDS -> 870 pM (6 of 6 replicates)

Reference: Li et al. 2023, doi:10.1038/s41467-023-39022-2. File: FLAb, binding data.